The target in test [1] is Dual specificity protein kinase CLK1 (Homo sapiens, UniProt P49759).
Test [2] has as its target T1, Dual specificity tyrosine-phosphorylation-regulated kinase 3 (Homo sapiens, UniProt O43781).
T1 sequence (O43781 whole entry): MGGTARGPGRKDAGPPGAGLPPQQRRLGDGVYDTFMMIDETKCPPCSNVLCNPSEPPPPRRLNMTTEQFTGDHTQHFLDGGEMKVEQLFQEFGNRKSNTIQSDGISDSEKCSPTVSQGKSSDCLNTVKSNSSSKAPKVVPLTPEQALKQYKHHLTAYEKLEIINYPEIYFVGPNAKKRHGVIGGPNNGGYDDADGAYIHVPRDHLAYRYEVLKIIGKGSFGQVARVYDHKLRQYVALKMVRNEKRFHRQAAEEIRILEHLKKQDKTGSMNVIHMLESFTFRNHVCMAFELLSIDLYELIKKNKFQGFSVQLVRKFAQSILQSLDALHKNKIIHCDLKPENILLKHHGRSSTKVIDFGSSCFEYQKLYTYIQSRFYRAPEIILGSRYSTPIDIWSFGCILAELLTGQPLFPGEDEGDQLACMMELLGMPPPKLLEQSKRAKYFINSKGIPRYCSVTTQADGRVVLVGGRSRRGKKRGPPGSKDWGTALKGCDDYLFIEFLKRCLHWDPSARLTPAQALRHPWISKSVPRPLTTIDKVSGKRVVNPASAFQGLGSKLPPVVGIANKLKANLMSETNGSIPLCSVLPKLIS

By UniProt entry, the sequences of proteins in these tests, tags left out. Where a name states a change or a piece, a line headed by the entry shows the natural chain unless it says otherwise.
UniProt P49759: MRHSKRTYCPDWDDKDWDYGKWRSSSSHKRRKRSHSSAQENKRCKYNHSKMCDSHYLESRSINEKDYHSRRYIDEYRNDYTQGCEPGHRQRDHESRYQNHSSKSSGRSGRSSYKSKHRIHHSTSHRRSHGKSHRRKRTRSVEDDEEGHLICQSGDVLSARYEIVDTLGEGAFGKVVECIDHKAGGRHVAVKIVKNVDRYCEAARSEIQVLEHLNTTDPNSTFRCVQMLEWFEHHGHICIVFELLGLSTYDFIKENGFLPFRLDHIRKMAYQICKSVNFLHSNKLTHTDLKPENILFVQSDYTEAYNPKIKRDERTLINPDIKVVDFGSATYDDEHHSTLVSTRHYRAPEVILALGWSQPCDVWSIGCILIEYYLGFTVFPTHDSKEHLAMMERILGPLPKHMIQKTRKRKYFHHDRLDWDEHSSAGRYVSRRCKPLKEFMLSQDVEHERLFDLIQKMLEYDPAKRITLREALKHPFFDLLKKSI
UniProt P49760, whole entry: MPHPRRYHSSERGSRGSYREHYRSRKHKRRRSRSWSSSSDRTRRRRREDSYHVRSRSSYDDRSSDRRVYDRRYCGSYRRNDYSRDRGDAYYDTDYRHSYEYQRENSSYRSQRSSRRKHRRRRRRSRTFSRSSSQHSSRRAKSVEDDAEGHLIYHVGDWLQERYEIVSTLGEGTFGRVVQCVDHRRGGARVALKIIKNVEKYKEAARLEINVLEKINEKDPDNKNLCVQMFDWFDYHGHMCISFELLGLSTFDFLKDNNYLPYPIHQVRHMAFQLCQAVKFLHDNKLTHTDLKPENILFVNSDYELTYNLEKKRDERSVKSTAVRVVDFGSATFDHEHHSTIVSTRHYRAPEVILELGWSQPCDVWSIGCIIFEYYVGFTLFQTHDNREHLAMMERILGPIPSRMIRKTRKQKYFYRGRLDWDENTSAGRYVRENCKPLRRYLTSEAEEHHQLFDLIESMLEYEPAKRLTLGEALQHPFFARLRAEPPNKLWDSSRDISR

In test [3] the target is Dual specificity protein kinase CLK2 (Homo sapiens, UniProt P49760).

In general, IC50 refers to the midpoint of a concentration-inhibition curve. On to `O=C1NC(Nc2ccccc2)=N/C1=C\c1ccc2c(c1)OCO2`, for which the IC50 in test [1] came to 56.4 nM; in test [2] it was 1850 nM; in test [3] it was 587 nM.

(Values after ChEMBL document CHEMBL5375979, “Chemical, Biochemical, Cellular, and Physiological Characterization of Leucettinib-21, a Down Syndrome and Alzheimer's Disease Drug Candidate” (J Med Chem, 2023).)
